The values that follow come from PubChem BioAssay AID651957 (The Scripps Research Institute Molecular Screening Center, 2012).

Chains of the proteins cited; added tags and fusions are not shown.
UniProt Q15596, whole entry: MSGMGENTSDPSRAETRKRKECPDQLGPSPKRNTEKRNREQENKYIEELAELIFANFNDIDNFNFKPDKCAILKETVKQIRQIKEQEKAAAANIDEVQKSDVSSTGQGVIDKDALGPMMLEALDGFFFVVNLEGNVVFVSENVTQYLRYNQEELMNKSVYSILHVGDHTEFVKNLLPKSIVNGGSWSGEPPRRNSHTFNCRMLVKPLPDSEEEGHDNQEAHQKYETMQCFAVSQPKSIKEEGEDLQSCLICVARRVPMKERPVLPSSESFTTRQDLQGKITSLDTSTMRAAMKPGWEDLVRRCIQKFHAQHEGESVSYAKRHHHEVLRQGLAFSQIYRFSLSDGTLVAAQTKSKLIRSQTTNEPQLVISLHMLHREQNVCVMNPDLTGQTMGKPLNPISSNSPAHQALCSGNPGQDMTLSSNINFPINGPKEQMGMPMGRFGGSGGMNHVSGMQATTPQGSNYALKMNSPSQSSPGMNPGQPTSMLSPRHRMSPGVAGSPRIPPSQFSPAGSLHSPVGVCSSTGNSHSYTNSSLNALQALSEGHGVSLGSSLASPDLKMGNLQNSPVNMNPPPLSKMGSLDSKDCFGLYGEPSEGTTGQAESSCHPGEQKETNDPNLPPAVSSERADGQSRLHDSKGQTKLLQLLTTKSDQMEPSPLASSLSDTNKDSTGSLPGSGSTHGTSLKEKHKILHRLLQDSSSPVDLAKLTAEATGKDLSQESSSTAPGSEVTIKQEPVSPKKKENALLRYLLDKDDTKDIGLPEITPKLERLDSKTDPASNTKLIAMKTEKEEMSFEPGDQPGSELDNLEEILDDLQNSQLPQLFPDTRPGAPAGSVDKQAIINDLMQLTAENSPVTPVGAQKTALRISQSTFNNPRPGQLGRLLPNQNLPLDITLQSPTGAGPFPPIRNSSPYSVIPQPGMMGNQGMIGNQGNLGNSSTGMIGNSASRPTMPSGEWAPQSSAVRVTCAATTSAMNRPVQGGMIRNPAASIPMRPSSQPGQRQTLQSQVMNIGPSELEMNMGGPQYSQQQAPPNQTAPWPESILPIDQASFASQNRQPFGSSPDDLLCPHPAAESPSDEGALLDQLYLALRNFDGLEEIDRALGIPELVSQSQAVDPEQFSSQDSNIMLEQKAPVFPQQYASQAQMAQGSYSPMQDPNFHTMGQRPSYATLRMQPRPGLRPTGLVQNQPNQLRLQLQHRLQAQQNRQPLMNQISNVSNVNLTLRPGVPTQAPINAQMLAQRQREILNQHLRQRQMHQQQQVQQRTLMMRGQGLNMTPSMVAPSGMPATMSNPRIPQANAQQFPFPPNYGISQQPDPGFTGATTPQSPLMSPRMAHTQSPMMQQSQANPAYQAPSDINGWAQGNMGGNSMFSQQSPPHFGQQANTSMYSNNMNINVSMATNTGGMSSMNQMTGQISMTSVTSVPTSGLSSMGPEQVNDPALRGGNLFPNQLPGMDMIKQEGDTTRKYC

Usually inhibition stands for the relative decrease from the control value, in per cent.

Structures are written as SMILES. This is a selection; strong and weak results do not stand in their true shares. Some tests of the compounds listed are not included; inactive here does not mean inactive elsewhere. Active and inactive are the calls of the source.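 Rule for the calls: active = inhibition above the mean inhibition of all tested compounds plus 3 SD, set per campaign (cut at about 52% in these data); inactive = the rest.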

The assay addresses Nuclear receptor coactivator 2 (Homo sapiens) (UniProt Q15596). Kind of assay: inhibition of GAL4-SRC2 driven luciferase reporter, primary screen, SRC2 inhibitor project, cell-based, luminescence (AID 651957).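 Note: 0% = DMSO treated cells and 100% = cells given Gossypol at 36 µM.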 Particulars: HEK293 GAL4-SRC2 luciferase reporter, at 9 µM, hits give high values. For orientation: Reporter assays use an easily measured gene product as a stand-in for the process of interest.
For `CN(C)C1(CNC(=O)c2ccc(Br)cc2)CCCCC1`, the inhibition was inactive: -3.98%.

With `COc1cc(C(=O)NCC2(N(C)C)CCCCC2)c([N+](=O)[O-])cc1OC`, the inhibition was inactive: 17.4%.

On to `COc1ccc(Cl)cc1C(=O)NCC1(N(C)C)CCCCC1`, for which the inhibition was inactive: 16.8%.

In the case of `COc1cccc(C(=O)NCC2(N3CCCCC3)CCCCC2)c1`, the inhibition was inactive: 6.76%.

Take `O=C(NCC1(N2CCCCC2)CCCCC1)c1cccc(Cl)c1`: the inhibition is inactive: -7.16%.

Take `O=C(OC1CN2CCC1CC2)C(CO)(c1ccccc1)c1ccccc1` (stereo unspecified): the inhibition is inactive: -6.41%.

In the case of `COc1ccc(Br)c(C(=O)NCC2(N3CCCCC3)CCCCC2)c1`, the inhibition was inactive: 26.3%.

Turning to `C=C(C)C#CC(O)(C(=O)OC1CCN(C)CC1)c1ccccc1` (stereo unspecified), the inhibition is inactive: -4.89%.

Regarding `CN(C)c1cccc(C(=O)NCC2(N(C)C)CCCCC2)c1`, the inhibition is inactive: 7.95%.

Consider `O=C(OCCN1CCCC1)C(O)(c1ccccc1)c1ccccc1`, for which the inhibition is inactive: -4.45%.

As for `CC(C)Oc1ccc(C(=O)NCC2(N(C)C)CCCCC2)cc1`, the inhibition is inactive: -35.1%.

As to `O=C(NCC1(N2CCCCC2)CCCCC1)c1cc([N+](=O)[O-])ccc1Cl`, the inhibition was inactive: 14.8%.

On to `CN1[C@@H]2CC[C@H]1CC(OC(=O)C(O)(c1ccccc1)c1ccccc1)C2` (stereo partly specified), for which the inhibition was inactive: -17%.

For `CC(C)N1C(=O)CC2(CCN(CCOC(=O)C(O)(c3ccccc3)c3ccccc3)CC2)C1=O`, the inhibition was inactive: 10.8%.

With `COc1cc(SC)ccc1C(=O)NCC1(N(C)C)CCCCC1`, the inhibition is inactive: -3.4%.

As for `CCN(CC)CC(C)C(C)OC(=O)C(O)(c1ccccc1)c1ccccc1` (stereo unspecified), the inhibition is inactive: -0.33%.

With `Cc1ccc(C(=O)NCC2(N3CCCCC3)CCCCC2)cc1`, the inhibition is inactive: -5.31%.

For `CN(C)c1ccc(C(=O)NCC2(N(C)C)CCCCC2)cc1`, the inhibition was inactive: -16.7%.

On to `CN(C)C1CCCC1OC(=O)C(O)(c1ccccc1)c1ccccc1` (stereo unspecified), for which the inhibition is inactive: -2.55%.

With `Cc1ccccc1C(=O)NCC1(N2CCCCC2)CCCCC1`, the inhibition was inactive: 14.8%.

For the molecule `O=C(NCC1(N2CCCCC2)CCCCC1)c1cc(F)c(F)cc1Cl`, the inhibition was inactive: -52%.

For the molecule `C=CCN1CCN(CCOC(=O)C(O)(c2ccccc2)c2ccccc2)CC1`, the inhibition was inactive: -5.8%.

In the case of `O=C(NCC1(N2CCCCC2)CCCCC1)c1cccc(Br)c1`, the inhibition was inactive: -20.5%.

As to `CCN1CCCC(OC(=O)C2(O)c3ccccc3C=Cc3ccccc32)C1` (stereo unspecified), the inhibition is inactive: 27.4%.

As to `Cc1cc(C(=O)NCC2(N3CCCCC3)CCCCC2)ccc1[N+](=O)[O-]`, the inhibition is inactive: -14.9%.

On to `COc1ccc(C(=O)NCC2(N(C)C)CCCCC2)cc1`, for which the inhibition was inactive: 5.92%.
